Biological target: NTR1 (NTR1-positive HT-29 cells) (Homo sapiens, UniProt P30989)
Test: In vitro competitive cell binding assay against 125I-NT
Conditions: as supported by the similar IC50 values

Chains of the proteins cited; added tags and fusions are not shown.
UniProt P30989, whole entry: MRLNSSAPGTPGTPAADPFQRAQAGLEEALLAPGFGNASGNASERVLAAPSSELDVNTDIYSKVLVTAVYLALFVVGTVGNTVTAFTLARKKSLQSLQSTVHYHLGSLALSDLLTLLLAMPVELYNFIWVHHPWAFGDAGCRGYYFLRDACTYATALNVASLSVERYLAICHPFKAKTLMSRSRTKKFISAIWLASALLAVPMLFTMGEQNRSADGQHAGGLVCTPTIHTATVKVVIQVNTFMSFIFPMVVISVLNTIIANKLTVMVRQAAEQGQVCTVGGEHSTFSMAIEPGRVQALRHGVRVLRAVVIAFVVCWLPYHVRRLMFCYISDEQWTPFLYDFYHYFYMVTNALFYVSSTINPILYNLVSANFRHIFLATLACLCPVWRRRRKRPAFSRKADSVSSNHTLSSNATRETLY

pGlu-Leu-Tyr-Glu-Asn-Lys-Pro-Arg-Arg-Pro-Try-Ile-Leu [NT, reference compound]
binding affinity compared between DOTA-NT-Cy5.5 and NT (in words): not significantly different

Source: paper PMC5460915 (Molecular pharmaceutics, 2015)
